Reference: patent US7642258B2, “Combination of brimonidine and timolol for topical ophthalmic use” (Allergan, Inc., priority 2002, dated 2010)

How the values were obtained:
[1] = tested on: patients with glaucoma or ocular hypertension; experiment: Clinical study: safety (adverse events, heart rate, blood pressure, visual acuity)
[2] = Clinical study: quantitation of plasma brimonidine and timolol concentrations; conditions: for concentration at 1 h: human, in vivo, mean±SD plasma brimonidine concentration, 1 hour postdose

SMILES: Brc1c(N=C2NCCN2)ccc2nccnc12.O=C(O)C(O)C(O)C(=O)O [Brimonidine, 5-Bromo-6-(2-imidazolidinylideneamino)quinoxaline L-tartrate]
- Serious adverse events reported ([1]; % of patients): 2.0%
- discontinuation of patients due to adverse events ([1]; % of patients): 14.3%
- allergic conjunctivitis, % of patients ([1]; adverse event through month 3): (3.6%)
- allergic conjunctivitis, number of patients ([1]; adverse event through month 3): 7
- asthenia, % of patients ([1]; adverse event through month 3): (3.1%)
- asthenia, number of patients ([1]; adverse event through month 3): 6
- burning sensation in eye, % of patients ([1]; adverse event through month 3): (5.6%)
- burning sensation in eye, number of patients ([1]; adverse event through month 3): 11
- conjunctival folliculosis, % of patients ([1]; adverse event through month 3): (4.6%)
- conjunctival folliculosis, number of patients ([1]; adverse event through month 3): 9
- conjunctival hyperemia, % of patients ([1]; adverse event through month 3): (11.7%)
- conjunctival hyperemia, number of patients ([1]; adverse event through month 3): 23
- epiphora, % of patients ([1]; adverse event through month 3): (4.1%)
- epiphora, number of patients ([1]; adverse event through month 3): 8
- eye pruritus, % of patients ([1]; adverse event through month 3): (6.6%)
- eye pruritus, number of patients ([1]; adverse event through month 3): 13
- foreign body sensation, % of patients ([1]; adverse event through month 3): (5.1%)
- foreign body sensation, number of patients ([1]; adverse event through month 3): 10
- infection (body as a whole), % of patients ([1]; adverse event through month 3): (3.1%)
- infection (body as a whole), number of patients ([1]; adverse event through month 3): 6
- oral dryness, % of patients ([1]; adverse event through month 3): (9.7%)
- oral dryness, number of patients ([1]; adverse event through month 3): 19
- somnolence, % of patients ([1]; adverse event through month 3): (3.6%)
- somnolence, number of patients ([1]; adverse event through month 3): 7
- stinging sensation eye, % of patients ([1]; adverse event through month 3): (2.0%)
- stinging sensation eye, number of patients ([1]; adverse event through month 3): 4
- visual disturbance, % of patients ([1]; adverse event through month 3): (5.6%)
- visual disturbance, number of patients ([1]; adverse event through month 3): 11
- death ([1]; number in group, not related to study drug): 1
- patients who experienced one or more adverse events, regardless of causality ([1]; through month 3): 61.7%
- concentration at 1 h ([2]; month 3): 0.0786 ± 0.0489 ng/mL
- concentration at 1 h ([2]; week 2): 0.081 ± 0.0638 ng/mL
- plasma brimonidine concentration in males lower than in females ([2]; month 3): 37%
- plasma brimonidine concentration in males lower than in females ([2]; week 2): 37%
